# Measured affinities in a library of Ab-14 heavy chain variants

Data: MIT Lincoln Laboratory AlphaSeq set, Li et al. 2023, doi:10.1038/s41467-023-39022-2, as distributed in FLAb.

All variants were tested on one target, the spike HR2 peptide PDVDLGDISGINAS (SARS-CoV-2).

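Phage display of a naive human antibody library on the peptide gave the parent. This is the validation round: designs drawn from the data on random variants, tested in the same kind of assay. Group labels follow the data file (Rand: our label for a block that the file lists under HC and that is probably the random mutants of the ten best first-round binders; En: ensemble of fine-tuned language models; HC: hill climbing; Gen: genetic algorithm; Gibbs: Gibbs sampling; a sequence that several methods proposed may carry one label only). Affinity was read by AlphaSeq, a pooled yeast mating assay with surface-displayed partners. Binding brings cells together so that they mate, and sequencing counts the barcode pairs among the diploids. Each replicate has its own calibration line, from reference interactions of the BCL2 family. There are six technical replicates.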

Each scFv is VH, three GGGGS repeats, VL, as in the parent Ab-14, and differs from it in the CDRs of the heavy chain only.
VH: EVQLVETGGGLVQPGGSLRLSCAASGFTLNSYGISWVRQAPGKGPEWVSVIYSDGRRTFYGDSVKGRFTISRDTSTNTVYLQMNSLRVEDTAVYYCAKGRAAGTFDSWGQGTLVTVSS
VL: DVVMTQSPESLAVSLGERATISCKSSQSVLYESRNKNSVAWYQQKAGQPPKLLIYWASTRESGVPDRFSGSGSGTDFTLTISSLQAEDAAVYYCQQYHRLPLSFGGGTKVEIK

The whole VH of each variant is written out.
Variants here have more than six changes.
Numbers give log10(Kd / nM), so 0 is 1 nM and 3 is 1 µM. Smaller is tighter.
The mean shown is taken over the replicates in which the pair was detected.
A pair that was not seen in any replicate is written "no signal"; this usually means weak binding, but a binder can also be missed.

- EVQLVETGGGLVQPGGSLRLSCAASGFDLNEYGISWVRQAPGKGPEWVSVIYADGRRTAYVQSVKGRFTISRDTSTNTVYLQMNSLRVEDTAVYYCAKGKNNVVDSVWGQGTLVTVSS [En_Gibbs]: no signal (0 of 6 replicates; controls 1 of 18)
- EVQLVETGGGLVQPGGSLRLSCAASGFDLESYGISWVRQAPGKGPEWVSVIYADGSRTAYADSVKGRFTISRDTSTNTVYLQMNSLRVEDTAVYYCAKGNVAGTFDEWGQGTLVTVSS [En_HC]: -0.68 (6 of 6 replicates; controls 0 of 18)
- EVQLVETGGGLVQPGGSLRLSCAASGQSIEEYGISWVRQAPGKGPEWVSVIYADGKRTQYKNSVKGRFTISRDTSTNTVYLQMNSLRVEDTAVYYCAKGTNADDITVWGQGTLVTVSS [En_Gibbs]: no signal (0 of 6 replicates; controls 1 of 18)
- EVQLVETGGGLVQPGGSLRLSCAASGFDLDEYGISWVRQAPGKGPEWVSVIYADGMRTAYSDDVKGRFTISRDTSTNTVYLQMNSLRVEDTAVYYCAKGEVAGTFDVWGQGTLVTVSS [En_Gen]: -0.20 (6 of 6 replicates; controls 0 of 18)
- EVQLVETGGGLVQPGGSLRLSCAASGFDLNEYGISWVRQAPGKGPEWVSVIYADGQRTFYSDSVKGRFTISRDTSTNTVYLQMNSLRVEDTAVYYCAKGQSAGTFDAWGQGTLVTVSS [En_HC]: 0.38 (6 of 6 replicates; controls 1 of 18)
- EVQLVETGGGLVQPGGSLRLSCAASGDSLNEYGISWVRQAPGKGPEWVSVIYADGVRARYADDVKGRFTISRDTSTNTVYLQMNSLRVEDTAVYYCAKGENDGLFDQWGQGTLVTVSS [En_Gibbs]: 1.42 (1 of 6 replicates; controls 0 of 18)
- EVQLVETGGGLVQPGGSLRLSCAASGFTLDCYEQSWVRQAPGKGPEWVSVEYSDGGRTFYGDSVKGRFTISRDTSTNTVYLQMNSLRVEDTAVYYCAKGRAYGTALSWGQGTLVTVSS [Rand]: no signal (0 of 6 replicates; controls 0 of 18)
- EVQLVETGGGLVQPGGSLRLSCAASGFDLNEYGISWVRQAPGKGPEWVSVIYADGVRTAYADSVKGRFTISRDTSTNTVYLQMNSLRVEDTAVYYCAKGGNAGTFDIWGQGTLVTVSS [En_Gen]: 0.52 (3 of 6 replicates; controls 0 of 18)
- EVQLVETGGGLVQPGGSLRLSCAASGFTLDEYGISWVRQAPGKGPEWVSVIYADGQRTAYIDDVKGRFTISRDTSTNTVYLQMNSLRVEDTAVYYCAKGQMGGNGYVWGQGTLVTVSS [En_Gibbs]: -0.71 (6 of 6 replicates; controls 0 of 18)
- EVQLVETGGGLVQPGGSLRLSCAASGFNLDEYGISWVRQAPGKGPEWVSVIYADGRRTFYADSVKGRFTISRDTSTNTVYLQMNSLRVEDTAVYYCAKGQVAGTFDTWGQGTLVTVSS [En_HC]: -0.84 (6 of 6 replicates; controls 0 of 18)
- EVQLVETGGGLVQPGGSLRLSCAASGFDLNEYGISWVRQAPGKGPEWVSVIYADGMRTYYADSVKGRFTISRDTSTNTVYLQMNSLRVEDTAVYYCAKGNNAGTFDMWGQGTLVTVSS [En_Gen]: no signal (0 of 6 replicates; controls 0 of 18)
- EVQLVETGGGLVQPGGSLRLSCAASGFDLDEYGISWVRQAPGKGPEWVSVIYADGMRTAYSDSVKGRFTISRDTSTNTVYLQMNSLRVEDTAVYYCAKGEQAGTFDVWGQGTLVTVSS [En_Gen]: -0.18 (6 of 6 replicates; controls 0 of 18)
- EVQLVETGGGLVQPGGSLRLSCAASGFDLDEYGISWVRQAPGKGPEWVSVIYADGRRTAYSDSVKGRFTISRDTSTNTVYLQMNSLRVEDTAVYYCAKGNVAGTFDQWGQGTLVTVSS [En_Gen]: 0.58 (1 of 6 replicates; controls 0 of 18)
- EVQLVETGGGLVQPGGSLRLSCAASGFDLNEYGISWVRQAPGKGPEWVSVIYADGMRTAYADSVKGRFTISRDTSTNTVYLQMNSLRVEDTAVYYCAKGNMAGTFDVWGQGTLVTVSS [En_Gen]: -0.20 (6 of 6 replicates; controls 0 of 18)
- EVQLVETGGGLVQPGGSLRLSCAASGFDLDEYGISWVRQAPGKGPEWVSVIYADGSRTAYADSVKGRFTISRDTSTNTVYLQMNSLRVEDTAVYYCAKGEVAGTFDQWGQGTLVTVSS [En_Gen]: -0.43 (6 of 6 replicates; controls 0 of 18)
- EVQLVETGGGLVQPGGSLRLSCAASGFDLEKYGISWVRQAPGKGPEWVSVIYADGMRSEYDQSVKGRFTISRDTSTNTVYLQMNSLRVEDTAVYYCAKGENAGYNMIWGQGTLVTVSS [En_Gibbs]: no signal (0 of 6 replicates; controls 1 of 18)
- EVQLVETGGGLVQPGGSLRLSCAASGFDLNDYGISWVRQAPGKGPEWVSVIYADGRRTAYIDSVKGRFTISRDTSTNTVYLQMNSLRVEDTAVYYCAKGEVAGTFDVWGQGTLVTVSS [En_HC]: -0.52 (6 of 6 replicates; controls 0 of 18)
- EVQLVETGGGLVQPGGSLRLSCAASGFDLEEYGISWVRQAPGKGPEWVSVIYADGKRTAYADSVKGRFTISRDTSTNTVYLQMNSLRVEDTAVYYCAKGTNAGTFDVWGQGTLVTVSS [En_Gen]: 0.81 (6 of 6 replicates; controls 0 of 18)
- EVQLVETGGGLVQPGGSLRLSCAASGFDLNEYGISWVRQAPGKGPEWVSVIYADGMRTFYSDSVKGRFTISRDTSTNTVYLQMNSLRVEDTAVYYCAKGQLAGTFDFWGQGTLVTVSS [En_HC]: -0.61 (6 of 6 replicates; controls 0 of 18)
- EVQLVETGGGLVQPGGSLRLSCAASGFGLDEYGISWVRQAPGKGPEWVSVIYADGRRTFYADSVKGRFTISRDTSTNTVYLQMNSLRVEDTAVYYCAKGENAGTFFMWGQGTLVTVSS [En_HC]: no signal (0 of 6 replicates; controls 0 of 18)
- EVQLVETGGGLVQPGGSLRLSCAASGFDLNEYGISWVRQAPGKGPEWVSVIYADGMRKFYADSVKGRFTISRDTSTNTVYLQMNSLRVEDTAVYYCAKGNQAGTFDVWGQGTLVTVSS [En_Gen]: 0.24 (6 of 6 replicates; controls 0 of 18)
- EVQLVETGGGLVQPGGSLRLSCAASGFDIDEYGISWVRQAPGKGPEWVSVIYADGRRTFYADSVKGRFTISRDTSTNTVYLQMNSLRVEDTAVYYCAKGTNAGTFDKWGQGTLVTVSS [En_HC]: -0.29 (6 of 6 replicates; controls 0 of 18)
- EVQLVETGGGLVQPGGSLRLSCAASGFDLNEYGISWVRQAPGKGPEWVSVIYADGMRTAYADKVKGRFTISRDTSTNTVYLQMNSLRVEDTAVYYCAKGNNAGTFDMWGQGTLVTVSS [En_Gen]: -0.12 (6 of 6 replicates; controls 0 of 18)
- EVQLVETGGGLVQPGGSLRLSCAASGFDLESYGISWVRQAPGKGPEWVSVIYADGKRTAYADSVKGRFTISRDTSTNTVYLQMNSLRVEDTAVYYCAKGNVAGTFDSWGQGTLVTVSS [En_HC]: -1.37 (6 of 6 replicates; controls 0 of 18)

The opening 2 entries, copied out:

| VH | group | mean log10 Kd (nM) | detected | control signals |
|---|---|---|---|---|
| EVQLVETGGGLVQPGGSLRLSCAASGFDLNEYGISWVRQAPGKGPEWVSVIYADGRRTAYVQSVKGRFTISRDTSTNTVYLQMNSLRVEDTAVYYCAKGKNNVVDSVWGQGTLVTVSS | En_Gibbs | no signal | 0 of 6 | 1 of 18 |
| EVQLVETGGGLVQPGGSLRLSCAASGFDLESYGISWVRQAPGKGPEWVSVIYADGSRTAYADSVKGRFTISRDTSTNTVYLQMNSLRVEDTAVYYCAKGNVAGTFDEWGQGTLVTVSS | En_HC | -0.68 | 6 of 6 | 0 of 18 |

A sequence measured in both rounds can read differently, since the two assays cover different ranges.
Background: pairings of all heavy chain designs with three empty control strains gave a value in 1% of cases (median 2.08, 5th percentile 0.84). Values in that range, when seen in few replicates, are hard to tell from nonspecific mating. For each scFv, signals with the empty controls are counted beside the result.
In the paper, a design with two or fewer of six values counts as a poor binder.